Antibody variant affinities, Ab-95 light chain, assay 2

Antigen: PDVDLGDISGINAS, a 14-residue peptide of the SARS-CoV-2 spike HR2 region.

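Phage display of a naive human antibody library on the peptide gave the parent. Variants in AAYL52 differ from the parent at up to three CDR positions; double and triple changes were sampled at random. Affinity was read by AlphaSeq, a pooled yeast mating assay with surface-displayed partners. Binding brings cells together so that they mate, and sequencing counts the barcode pairs among the diploids. The ratio of observed to expected reads was calibrated, replicate by replicate, on BCL2-family standards whose Kd was known from biolayer interferometry. Each pool was mated in three replicate cultures.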

Ab-95 is the parent antibody, in scFv form: VH, then the linker GGGGSGGGGSGGGGS, then VL. The heavy chain is unchanged in all variants.
VH: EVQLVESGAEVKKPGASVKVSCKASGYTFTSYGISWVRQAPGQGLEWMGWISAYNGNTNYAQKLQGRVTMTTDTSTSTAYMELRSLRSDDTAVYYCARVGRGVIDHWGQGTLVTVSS
VL: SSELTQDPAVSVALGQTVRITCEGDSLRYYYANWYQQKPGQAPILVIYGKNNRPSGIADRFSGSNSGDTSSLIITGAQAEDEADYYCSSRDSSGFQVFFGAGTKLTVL

Each variant is given by its three light chain CDRs, as the data file delimits them; those of the parent are EGDSLRYYYAN, GKNNRPS, SSRDSSGFQVF. Numbers give log10(Kd / nM), so 0 is 1 nM and 3 is 1 µM. Smaller is tighter. A mean of the replicates is given; it leaves out those without a signal. "not detected" means that the variant was in the library but no mating with the target was seen in any replicate; the authors take this as a sign of poor binding, and no number exists.

"log10 Kd (nM), mean",replicates with signal,CDR-L1,CDR-L2,CDR-L3
1.98,3/3,EGDALRYYHAN,GKNNRPV,SSRDSSGFQVF
3.98,2/3,EGDSLRYYYAN,HWNNRLS,SSRDSSGFQVF
3.07,3/3,EGDSLRYYYAN,GKQNRPS,SSRDSSYIQVF
3.26,3/3,EGDSLRYYYAN,GKNNSGS,SSRDLSGFQVF
3.81,2/3,EGDSLRYYYAQ,GKRNRPS,SSFDSSGFQVF
not detected,0/3,DGDSLRYYYYN,GKNNRPS,SSLDSSGFQVF
4.08,1/3,EGDMLRYYYAN,GKNNRPS,SSRDISGFQVD
3.48,3/3,EGQSLRYYYAN,DKNNRPS,SMRDSSGFQVF
4.51,1/3,EGKSLRYYYAN,KKNNRPS,SLRDSSGFQVF
not detected,0/3,EGDILRYYYAN,GKYNRWS,SSRDSSGFQVF
2.28,3/3,DGDSLRYYYPN,GSNNRPS,SSRDSSGFQVF
3.67,1/3,DGDVLRYYYAD,GKNNRPS,SSRDSSGFQVF
2.28,3/3,EGDSLRYAYAN,GKNNRPP,SSRDSIGFQVF
3.09,3/3,EGDSIRYYYAN,GKNVRPS,SSRDSSFFQVF
3.57,3/3,EGLSLRYYYAN,GKNRRRS,SSRDSSGFQVF
4.16,1/3,EGDSNRYYYAN,GKNNRPS,VSRDLSGFQVF
3.43,3/3,EGDSLRYYYAN,GKNKYPE,SSRDSSGFQVF
not detected,0/3,EGGSLRYYYAN,GKNNNPS,FSRDSSGFQVF
3.20,3/3,EGDSLRYYPAN,GKKNRLS,SSRDSSGFQVF
3.10,3/3,EGDSLRYIYAN,GKNNRVS,SSRDSSGFQVF
3.56,2/3,EGDSLRYYYAN,GKNNRPS,YQRDSSFFQVF
not detected,0/3,EGDSLFYYYAN,GKNTRPS,SSRDSSGFQVK
not detected,0/3,EGDSLRYYYAV,GKNNRPS,FSRDSSGHQVF
4.42,2/3,EGDSLRYYYAN,GCENRPS,SSRDSMGFQVF
3.89,1/3,EGDSLRYWYAN,GKNNRLS,SSRDSLGFQVF
0.76,3/3,EGDSLRYHYAN,GKNNRSS,SSRDSSGFQVF
3.37,3/3,EGRSSRDYYAN,GKNNRPS,SSRDSSGFQVF
3.51,2/3,EGDSLRYYYAN,GKNNTPS,SDRDSSGFNVF
2.70,3/3,EIDSLRYYYAN,GKNARPS,PSRDSSGFQVF
not detected,0/3,EGDSLRAYYAN,GKNSRPS,SSRDSSGFQEF
not detected,0/3,QGDSLRYYYAN,IKINRPS,SSRDSSGFQVF
4.44,1/3,EGDSLRYYYAN,GKNNRIS,SSRQSSGFEVF
4.13,1/3,EGDYLFYYYAN,GKNNRPS,SSGDSSGFQVF
3.60,1/3,EGDMLLYYYAN,GKNNRPS,SSRDSSTFQVF
3.16,3/3,EGDWSRYYYAN,GKNNRPS,SMRDSSGFQVF
3.20,3/3,EGDSLRYYYAN,GKNNHPS,SSSDSSGFWVF
2.73,3/3,EGDSLRYVYAN,GHNNRDS,SSRDSSGFQVF
2.66,3/3,EGDSLRYYQAN,GKNGRPS,SSRDSSGFVVF
1.52,3/3,EGDSLRGYFAN,GKNYRPS,SSRDSSGFQVF
2.02,3/3,CGDSLRYYYAN,GKNARPS,SCRDSSGFQVF
1.83,3/3,EGDSLRYEYAN,GGNNRRS,SSRDSSGFQVF
3.39,1/3,EGDSLRLYYRN,GKNNRPD,SSRDSSGFQVF
2.39,3/3,EGDSLRYYYAN,GKNIRPS,SARDSRGFQVF
3.63,3/3,EGDSLAYYYAN,GKNNRPF,SSRDSPGFQVF
3.94,2/3,GGDSLRYFYAN,GKNNRPS,SSRDSSGFQVV
3.91,3/3,EGDSLRYFLAN,GKNFRPS,SSRDSSGFQVF
3.36,2/3,EGPSLRSYYAN,GKNNEPS,SSRDSSGFQVF
3.94,1/3,QGDSLRYYYAN,GKNNLPS,SSPDSSGFQVF
not detected,0/3,EGDSLRYYYAN,CKNNRPS,SSRDSSGFEIF
not detected,0/3,KGPSLRYYYAN,GKNNRPS,SSRDSSGFWVF
2.76,3/3,EGDSLRYYYAN,GKQNRPS,SSRHSSGRQVF
3.37,1/3,EGDSLRYMYAF,GKNNRPS,SSRDESGFQVF
3.79,2/3,EGDSLRYYYAI,GKNNRQS,SSRDNSGFQVF
3.74,2/3,EGDSLRYYYGN,GPCNRPS,SSRDSSGFQVF
not detected,0/3,EGDSLRKYYAN,GKNNRPS,SDRDSSGDQVF
4.10,2/3,EGDSLRYYYAN,GKNNRPS,FSHDSSGFQEF
2.72,3/3,LGDSLRYHYAN,GKNNRPS,SSRDSSGFTVF
3.36,2/3,EGDSLRYYYMN,GKNNRPS,SSGDSIGFQVF
4.53,2/3,EGDSLRYYYEN,CKNNRPS,SSRDASGFQVF
3.26,3/3,YGDSLRYYYAN,GKNNRPS,SSRDSSYFQVF
3.44,1/3,EGDSLLYYYAN,GKNNRPS,SYRDSSGFQNF
3.59,2/3,EGISLRPYYAN,GKNNRPS,SSRDSSLFQVF
3.32,3/3,EGDSLRYIYAN,GKNNRPQ,SSRDSLGFQVF
2.20,3/3,EGRSLRYVYVN,GKNNRPS,SSRDSSGFQVF
not detected,0/3,EGGSLRYYYAN,GKNNRPS,SSRWSSGFQVK
3.42,3/3,DGKSLRYYYAN,GKNNRPS,SSRDSSGCQVF
not detected,0/3,EGDSLRYCYAN,GKNNYPS,SSRDSSGFFVF
2.87,3/3,EGDSLRYYYAN,GKNNRPS,SSRGISGWQVF
2.87,3/3,WGDSLRYYYAN,GKNNRPF,SSRDSSGFQVF
4.14,1/3,EGDSDRYYYAN,GKNNLPS,SSRDSSGCQVF
3.12,3/3,EQDSLRYYIAN,GKNNRPS,SSRDSSGFQVF
3.14,3/3,EGDSLRYYYAN,GKNNRPS,SSRCSRGFWVF
3.68,2/3,EGDSLRYYFYN,GKNNRAS,SSRDSSGFQVF
1.60,3/3,EGWSLRYYDAN,GKSNRPS,SSRDSSGFQVF
not detected,0/3,EGDSWNYYYAN,YKNNRPS,SSRDSSGFQVF
2.59,3/3,EGISLRYYYCN,GKNNRPS,SSRDSSGFQVF
2.60,3/3,TGDSLFYYYAN,GKNNRPS,SSRDSSGFHVF
3.15,3/3,EGDNLRYYYAN,GKNNRPS,SSRASSGFPVF
2.46,3/3,EGDSLRWYYAN,GGYNRPS,SSRDSSGFQVF
3.14,2/3,EGDSTRYYYAN,GKNNRPT,SSGDSSGFQVF

Excerpt, the final 10 entries:

| CDR-L1 | CDR-L2 | CDR-L3 | log10 Kd (nM), mean | replicates with signal |
|---|---|---|---|---|
| EQDSLRYYIAN | GKNNRPS | SSRDSSGFQVF | 3.12 | 3/3 |
| EGDSLRYYYAN | GKNNRPS | SSRCSRGFWVF | 3.14 | 3/3 |
| EGDSLRYYFYN | GKNNRAS | SSRDSSGFQVF | 3.68 | 2/3 |
| EGWSLRYYDAN | GKSNRPS | SSRDSSGFQVF | 1.60 | 3/3 |
| EGDSWNYYYAN | YKNNRPS | SSRDSSGFQVF | not detected | 0/3 |
| EGISLRYYYCN | GKNNRPS | SSRDSSGFQVF | 2.59 | 3/3 |
| TGDSLFYYYAN | GKNNRPS | SSRDSSGFHVF | 2.60 | 3/3 |
| EGDNLRYYYAN | GKNNRPS | SSRASSGFPVF | 3.15 | 3/3 |
| EGDSLRWYYAN | GGYNRPS | SSRDSSGFQVF | 2.46 | 3/3 |
| EGDSTRYYYAN | GKNNRPT | SSGDSSGFQVF | 3.14 | 2/3 |

In this assay the parent's reference entry averaged 2.31; its copy inside this library read 2.25. As a blank, each scFv also met three strains without target: over library AAYL52, 28% of these pairings were detected, typically at 3.91 and seldom below 2.90.

From the AlphaSeq antibody data of Engelhart et al. 2022 (doi:10.1038/s41597-022-01779-4), copy in the FLAb collection.